# AlphaSeq binding of Ab-95 light chain variants to a spike HR2 peptide

All variants were tested on one target, the spike HR2 peptide PDVDLGDISGINAS (SARS-CoV-2).

Each scFv is VH, a 15-residue (Gly4Ser)3 linker, VL, as in the parent Ab-95, and differs from it in the CDRs of the light chain only.
VH: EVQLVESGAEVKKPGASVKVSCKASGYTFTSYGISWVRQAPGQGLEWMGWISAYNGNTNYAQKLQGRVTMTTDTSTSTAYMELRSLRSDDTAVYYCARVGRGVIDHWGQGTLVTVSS
VL: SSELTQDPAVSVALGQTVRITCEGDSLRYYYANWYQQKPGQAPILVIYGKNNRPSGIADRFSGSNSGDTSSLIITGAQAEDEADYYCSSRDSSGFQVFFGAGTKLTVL

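The library (AAYL52) carries one to three amino acid substitutions per variant, with no insertions or deletions. The assay is AlphaSeq: two haploid yeast populations carry antibody and antigen on their surface. Mating (16 h, 30 °C) was followed by selection of diploids and sequencing of their barcodes. A regression on co-assayed BCL2-family reference pairs converts the normalised counts of each replicate to an apparent Kd. Each pool was mated in three replicate cultures.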

Substitutions are numbered in sequence along the VL above, starting at 1 (not Kabat).
The read-out is the apparent dissociation constant on a log10 scale (nM): the lower, the stronger.
Averages over replicates are reported, and they cover detected replicates only.
A pair that was not seen in that replicate is written "n.d."; this usually means weak binding, but a binder can also be missed.
Background: pairings of library AAYL52 with three empty control strains gave a value in 28% of cases (median 3.91, 5th percentile 2.90). Values in that range, when seen in few replicates, are hard to tell from nonspecific mating. Also given: how often the same scFv was detected with the empty control strains, with their mean in brackets.
Parent in this assay: reference entry 2.31, copy in this library 2.25.

| changes | replicates, log10 nM | mean log10 Kd (nM) | control signals |
|---|---|---|---|
| K50T R53M F95S | 4.34 / 4.39 / n.d. | 4.37 | 4 of 9 (3.77) |
| G24A A32M S55K | 2.78 / 4.21 / 2.88 | 3.29 | 0 of 9 |
| E23W L27Q S93I | n.d. / n.d. / n.d. | n.d. | 0 of 9 |
| D25N N52P F95Q | n.d. / n.d. / n.d. | n.d. | 2 of 9 (3.06) |
| Y30G N51T S93C | 1.17 / 0.90 / 0.32 | 0.80 | 3 of 9 (3.47) |
| R28P P54Y S92M | 4.25 / 3.85 / 3.31 | 3.80 | 6 of 9 (4.49) |
| K50Y S89P F98V | n.d. / 3.77 / n.d. | 3.77 | 4 of 9 (4.34) |
| D25E Y30E R53A | 1.62 / 1.51 / 1.08 | 1.40 | 5 of 9 (3.83) |
| E23D Y29E R53W | 5.36 / 3.77 / n.d. | 4.57 | 2 of 9 (4.01) |
| G49D N51C S93P | n.d. / n.d. / 3.61 | 3.61 | 6 of 9 (3.58) |
| N33H R90F G94W | 3.74 / n.d. / n.d. | 3.74 | 3 of 9 (4.23) |
| R28E N33D R53K | n.d. / 3.19 / n.d. | 3.19 | 1 of 9 (2.82) |
| Y31M A32C N52R | 3.35 / 2.94 / 2.94 | 3.08 | 4 of 9 (4.42) |
| N33M R53T G94S | 3.50 / n.d. / n.d. | 3.50 | 4 of 9 (3.70) |
| Y29C K50H R90F | 4.11 / 4.87 / n.d. | 4.49 | 5 of 9 (3.96) |
| R28K V97K F98A | 3.95 / 3.48 / 4.06 | 3.83 | 2 of 9 (3.50) |
| S26T R28A F95P | 4.06 / 2.84 / 3.03 | 3.31 | 7 of 9 (3.87) |
| P54S D91R V97W | 2.12 / 2.01 / 2.14 | 2.09 | 2 of 9 (4.81) |
| Y30W G49P | n.d. / n.d. / n.d. | n.d. | 2 of 9 (4.76) |
| G24N A32M P54L | 3.31 / n.d. / n.d. | 3.31 | 1 of 9 (5.16) |
| L27F S88P R90V | 2.83 / 2.82 / 3.25 | 2.97 | 3 of 9 (4.07) |
| R28Q S92G Q96L | 3.83 / 3.50 / 2.32 | 3.22 | 4 of 9 (3.82) |
| E23S S92I Q96T | 2.90 / 2.94 / 3.24 | 3.02 | 4 of 9 (3.47) |
| D25S P54M V97H | 3.74 / 2.92 / 3.44 | 3.37 | 3 of 9 (3.78) |
| G49V K50A S93A | n.d. / 4.68 / n.d. | 4.68 | 3 of 9 (4.07) |
| R28I P54G S92I | 4.77 / 3.28 / 4.22 | 4.09 | 2 of 9 (4.13) |
| L27S R53V S88F | 4.40 / n.d. / 3.35 | 3.88 | 3 of 9 (4.26) |
| S55G D91Q V97T | 4.18 / 2.57 / n.d. | 3.37 | 0 of 9 |
| G49P K50M S89D | n.d. / n.d. / n.d. | n.d. | 2 of 9 (3.50) |
| R28W Y29M V97K | n.d. / n.d. / n.d. | n.d. | 1 of 9 (2.77) |
| S88T S92E | 3.88 / n.d. / n.d. | 3.88 | 0 of 9 |
| E23L N52C S92Q | n.d. / 4.07 / n.d. | 4.07 | 0 of 9 |
| Y31Q R53Y G94S | n.d. / n.d. / n.d. | n.d. | 3 of 9 (3.56) |
| L27I S55E D91G | 2.51 / 2.29 / 2.76 | 2.52 | 0 of 9 |
| A32S P54W Q96C | 3.37 / 3.29 / 3.99 | 3.55 | 4 of 9 (3.67) |
| G49P S92A | 3.80 / 3.49 / 3.71 | 3.66 | 2 of 9 (3.58) |
| D25I K50D S88P | 1.90 / 2.13 / 1.79 | 1.94 | 4 of 9 (3.70) |
| L27G S92F S93C | n.d. / n.d. / n.d. | n.d. | 5 of 9 (3.84) |
| L27S D91K Q96S | 4.21 / 3.77 / 4.18 | 4.05 | 6 of 9 (3.92) |
| E23R G49C G94M | 3.37 / n.d. / n.d. | 3.37 | 1 of 9 (2.67) |
| D25C G49W K50A | 4.52 / n.d. / n.d. | 4.52 | 2 of 9 (3.98) |
| R28E S92N F98K | 3.03 / 2.95 / 3.88 | 3.29 | 1 of 9 (3.82) |
| E23S G49K K50D | n.d. / n.d. / n.d. | n.d. | 0 of 9 |
| Y29A | 1.92 / 1.79 / 1.28 | 1.66 | 4 of 9 (4.88) |
| Y31S D91E F98E | 1.76 / 2.24 / 2.23 | 2.08 | 3 of 9 (5.04) |
| E23D S93D F95C | n.d. / n.d. / 2.83 | 2.83 | 3 of 9 (2.70) |
| S26G Y31V S88K | n.d. / 4.99 / n.d. | 4.99 | 2 of 9 (3.42) |
| A32D S55N V97N | 4.72 / n.d. / n.d. | 4.72 | 2 of 9 (4.26) |
| N33F R90T S92I | n.d. / n.d. / n.d. | n.d. | 3 of 9 (3.44) |

For reference, 8 entries of the list once more:

| changes | replicates, log10 nM | mean log10 Kd (nM) | control signals |
|---|---|---|---|
| E23S G49K K50D | n.d. / n.d. / n.d. | n.d. | 0 of 9 |
| N33F R90T S92I | n.d. / n.d. / n.d. | n.d. | 3 of 9 (3.44) |
| G24A A32M S55K | 2.78 / 4.21 / 2.88 | 3.29 | 0 of 9 |
| Y30G N51T S93C | 1.17 / 0.90 / 0.32 | 0.80 | 3 of 9 (3.47) |
| L27F S88P R90V | 2.83 / 2.82 / 3.25 | 2.97 | 3 of 9 (4.07) |
| G49P S92A | 3.80 / 3.49 / 3.71 | 3.66 | 2 of 9 (3.58) |
| R28W Y29M V97K | n.d. / n.d. / n.d. | n.d. | 1 of 9 (2.77) |
| G49D N51C S93P | n.d. / n.d. / 3.61 | 3.61 | 6 of 9 (3.58) |

The measurements come from Engelhart et al. 2022 (doi:10.1038/s41597-022-01779-4) through the FLAb antibody collection.